Test results as given in patent US6043366A (priority 1997, dated 2000).

Sequences of proteins named here, by UniProt entry; tags and fusion partners are left off. A change or cut given only in a name is not applied to a line headed by its entry.
UniProt P35370: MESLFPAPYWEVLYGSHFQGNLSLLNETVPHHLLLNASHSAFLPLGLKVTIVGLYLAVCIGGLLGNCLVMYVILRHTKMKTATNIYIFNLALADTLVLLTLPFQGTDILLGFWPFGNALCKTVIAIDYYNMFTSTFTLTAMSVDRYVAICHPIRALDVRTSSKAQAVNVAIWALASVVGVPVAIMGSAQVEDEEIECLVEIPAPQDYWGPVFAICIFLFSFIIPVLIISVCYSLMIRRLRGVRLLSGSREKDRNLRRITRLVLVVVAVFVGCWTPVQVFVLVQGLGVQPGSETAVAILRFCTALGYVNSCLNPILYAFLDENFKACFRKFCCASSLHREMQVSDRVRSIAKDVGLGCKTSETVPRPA

Target: rat OFQ receptor (LC132) (Rattus norvegicus, UniProt P35370)
Test: OFQ-R binding assay ([3H]-OFQ competition)
Conditions: membranes of 293s-OFQ-R cells, IC50 converted to Ki by Cheng and Prusoff

Compound | affinity to the OFQ-receptor, given as pKi
CCCC1CCC(N2CCC3(CC2)C(=O)NCN3c2ccccc2)CC1 (centres unmarked) | 8,4
CN1CN(c2ccccc2)C2(CCN(C3CCC4CCCCC4C3)CC2)C1=O (racemic) | 9,5
